Amino acid sequences for entries named in this document (tags omitted). A change or cut given only in a name is not applied to a line headed by its entry.
UniProt P30542, whole entry: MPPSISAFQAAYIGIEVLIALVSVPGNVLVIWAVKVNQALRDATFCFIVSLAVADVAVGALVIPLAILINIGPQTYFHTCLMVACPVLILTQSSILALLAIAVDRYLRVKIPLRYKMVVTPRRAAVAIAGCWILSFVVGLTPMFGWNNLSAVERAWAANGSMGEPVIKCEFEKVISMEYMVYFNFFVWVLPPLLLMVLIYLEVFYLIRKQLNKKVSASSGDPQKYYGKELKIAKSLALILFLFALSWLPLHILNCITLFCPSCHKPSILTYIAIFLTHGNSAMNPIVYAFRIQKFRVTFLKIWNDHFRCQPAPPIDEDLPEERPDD

According to patent US6664252B2, “4-aminopyrrolo[2,3-d]pyrimidine compounds specific to adenosine A2a receptor and uses thereof” (OSI Pharmaceuticals, Inc., priority 1999, dated 2003):

Tests used:
human adenosine A1 (A1R) = target: T1, human adenosine A1 (A1R) (Homo sapiens, UniProt P30542); assay: Yeast β-Galactosidase reporter gene assay, inhibition of NECA-induced activity, strain CY12660; format: cell-based; details: Table 12
T1 construct: yeast alpha-factor (MFalpha1) prepro leader (N, cleaved yes); expressed in transfected cells; host or cells: Saccharomyces cerevisiae (strain CY12660 and related strains carrying plasmid p5095)

[1] = target: human A1 receptor subtype (Homo sapiens, UniProt P30542); assay: biochemical
[2] = target: T2, human A2b receptor subtype (Homo sapiens, UniProt P29275); assay: Adenosine 2b receptor subtype competition radioligand binding, [3H]DPCPX, HEK293 membranes
T2 sequence (P29275 1-332): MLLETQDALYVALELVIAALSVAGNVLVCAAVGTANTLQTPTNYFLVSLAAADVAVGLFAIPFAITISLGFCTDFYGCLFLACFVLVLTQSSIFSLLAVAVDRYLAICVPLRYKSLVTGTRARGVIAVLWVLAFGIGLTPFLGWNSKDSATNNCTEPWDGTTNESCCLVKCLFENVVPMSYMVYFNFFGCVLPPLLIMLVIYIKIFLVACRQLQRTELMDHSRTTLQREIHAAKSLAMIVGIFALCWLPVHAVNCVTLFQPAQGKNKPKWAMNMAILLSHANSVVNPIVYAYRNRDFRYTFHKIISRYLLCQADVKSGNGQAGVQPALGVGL

SMILES | IC50 (human adenosine A1 (A1R)) | Ki [1] | Ki [2]
Cc1[nH]c2nc(-c3ccccc3)nc(NCCC(=O)O)c2c1C [Compound 1204] | > 10000 nM | – | –
CC(=O)NCCNc1nc(-c2ccccc2)nc2[nH]c(COc3ccc(Cl)cc3)cc12 [Compound 1402, 4-(2-acetylaminoethyl)amino-6-(4-chlorophenoxy)methyl-2-phenyl-7H-pyrrolo[2,3d]pyrimidine] | – | 825 nM | 22 nM
